These results are taken from US10167279B2 (NOVARTIS AG, priority 2014, dated 2019).

This experiment addresses C-Raf FL (Homo sapiens (Human), UniProt P04049, Y340E/Y341E). The experiment in a line: In vitro Raf activity determination (Alpha Screen, phospho-MEK), C-Raf FL (full length, Y340E/Y341E). The note with it: ATP 1 μM; 60 min pre-incubation; 1 hour reaction; column head does not say FL or TR. It is filed as biochemical. An excerpt:
The activity of a compound according to the present invention can be assessed by well-known in vitro & in vivo methods. Raf inhibition data provided herein was obtained using the following procedures.
Sf9 cells co-expressing both proteins were lysed and subjected to immobilized nickel chromatography and eluted with Imidazole. A second column (StrepII binding column) was used and eluted with desthiobiotin. Protein Tags were removed using Prescission enzyme and the protein was further purified using a flowthrough step to remove tags.
C-Raf TR refers to a truncated C-Raf protein, a Δ1-324 deletion mutant. C-Raf FL refers to the full-length C-Raf protein.
Full length MEK1 with an inactivating K97R ATP binding site mutation is utilized as a RAF substrate. The MEK1 cDNA was subcloned with an N-terminal (his)6 tag into a vector for E. Coli expression. […]
Assay protocol: Raf and biotinylated Mek (kinase dead) were combined at 2× final concentrations in assay buffer (50 mM Tris, pH 7.5, 15 mM MgCl2, 0.01% BSA and 1 mM DTT) and dispensed […] per well in assay plates (Greiner white 384 well assay plates #781207) containing […] of 40× of a Raf kinase inhibitor test compound diluted in 100% DMSO. […] A lid was placed on top of the plate and incubated for 1 hour at room temperature, after which the luminescence was read on a PerkinElmer Envision instrument. […]

Regarding “2-(1,1-difluoroethyl)-N- (3-(2-(hydroxymethyl)- 2-methyl-3-oxo-8- (tetrahydro-2H-pyran-4- yl)-3,4-dihydro-2H-benzo [b][1,4]oxazin-6-yl)-4- methylphenyl) isonicotinamide [Example 203]”, half-maximal inhibition (IC50) required 200 pM. The substance “2-(2-cyanopropan-2-yl)- N-(3-(2-(2- hydroxyethoxy)-6-(4- (hydroxymethyl) tetrahydro-2H-pyran-4- yl)pyridin-4-yl)-4- methylphenyl) isonicotinamide [Example 218]” gave an IC50 of 800 pM.

For orientation: IC50 means the concentration needed to halve the response being measured.
